Patent US20260137794A1, “LIGAND-DRUG CONJUGATE AND USE THEREOF” (SYSTIMMUNE, INC., priority 2022, published 2026)

Protein sequences, listed by entry. Tags and fused reporters are not part of them. Residues count along the entry.
UniProt P20138, 18-364: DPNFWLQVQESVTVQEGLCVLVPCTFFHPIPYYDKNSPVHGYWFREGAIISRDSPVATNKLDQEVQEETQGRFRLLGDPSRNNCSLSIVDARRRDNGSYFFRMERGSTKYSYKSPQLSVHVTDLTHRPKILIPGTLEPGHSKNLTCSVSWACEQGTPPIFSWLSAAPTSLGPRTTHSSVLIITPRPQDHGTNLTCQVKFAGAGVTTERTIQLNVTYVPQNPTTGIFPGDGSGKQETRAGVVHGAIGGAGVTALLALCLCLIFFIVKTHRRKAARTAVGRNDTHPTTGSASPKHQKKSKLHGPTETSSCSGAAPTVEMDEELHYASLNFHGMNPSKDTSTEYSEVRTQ

Assays:
[1] = test system: multiple AML cell strains; assay: CD33 cell killing experiment, conclusion over the cell models; assay type: cell-based, Human; conditions: in words; CD33 high-expression, moderate-expression and negative cell lines
Description: Pharmacodynamic test at cellular level: cell plating was performed on a 96-well plate in a certain density. After the cells adhered to the wall (usually taking at least 4 h), a series of drugs in several folds of dilution were added to each well plate to act for a certain period of time, for killing the cells. At the end of action of the drugs, a certain amount of MTS was added to react at 37° C. under 5% CO2 for 1-4 h. After color development using the MTS reagent, the OD 490 nm absorbance value was detected using a microplate reader, and then the IC50 for cell killing was analyzed and calculated.
• 1) Cell revival: after preheating in a 37° C.′ water bath, 9 mL of the culture medium was taken and put in a centrifuge tube for later use; the cells were taken out from liquid nitrogen, immediately quickly shaked at 37° C.′ to fully thaw, then transferred into the centrifuge tube, and centrifuged at 1000 rpm for 3 min at room temperature: the supernatant was discarded, and the precipitate was re-suspended with 1 mL of complete culture medium, where the process should be gentle, to prevent bubbles from being blown out, thereby reducing damage to the cells; the cells were transferred into a culture flask, and cultivated in a cell incubator at 37° C., 5% CO2 and 95% relative humidity. […]

[2] = molecular target: recombinant human CD33 protein (Homo sapiens, UniProt P20138); assay: Binding of anti-CD33 antibody-drug conjugate to recombinant human CD33 protein by ELISA; conditions: in words, 3-fold gradient from 2 μg/mL
Description: The binding ability of antibody to antigen can be preliminarily judged by ELISA. Here, recombinant human CD33 protein was immobilized on an enzyme strip, and tested with the addition of a series of concentration gradients of CD33 antibody. • 1. Coating: coating with CD33 diluted to 0.5 ng/ml, using 1×PBS, at 100 μL per well, at 4° C. overnight. • 2. Plate washing: washing the plate with a plate wash buffer (1×PBS+0.05% Tween 20) 3 times, at 200 μL per well, while standing for 1 min each time. • 3. Sealing: after the 3rd patting-dry of the wash buffer, sealing with a sealing buffer (1/PBS+0.05% Tween20+1% BSA), at 200 μL per well, at 37° C. for 1 h. • 4. Plate washing: washing the plate with the plate wash buffer 3 times, at 200 μL per well, while standing for 1 min each time. • 5. Primary antibody loading: diluting the antibody-drug conjugate (same as Test example 1) at a 3-fold gradient from 2 μg/mL using a sample diluent (1×PBS+0.05% Tween20+1% BSA); washing the plate with the plate wash buffer 3 times, at 200 μL per well, while standing for 1 min each time. • 6. Secondary antibody loading: diluting Solarbio rabbit anti-human antibody at a ratio of 1:10000 with an assay buffer (1<PBS+0.05% Tween20+1% BSA) to 100 μL per well, while standing at 37° C. for 1 h. • 7. Plate washing: washing the plate with the plate wash buffer 3 times, at 200 μL per well, while standing for 1 min each time. • 8. Reading: after 7 min of color development with the addition of a TMB color development liquid (50 μL per well), adding 2M H2SO4 (50 μL per well) to terminate it. Plate reading using a microplate reader at 450 nm.

B1: ANTI-CD33-R01-1 (2) - Ex01 (8) (conjugate)
light: DIQLTQSPSTLSASVGDRVTITCRASESLDNYGIRFLTWFQQKPGKAPKLLMYAASNQGSGVPSRFSGSGSGTEFTLTISSLQPDDFATYYCQQTKEVPWSFGQGTKVEVKRTVAAPSVFIFPPSDEQLKSGTASVVCLLNNFYPREAKVQWKVDNALQSGNSQESVTEQDSKDSTYSLSSTLTLSKADYEKHKVYACEVTHQGLSSPVCTKSFNRGEC
heavy: EVQLVQSGAEVKKPGSSVKVSCKASGYTITDSNIHWVRQAPGQSLEWIGYIYPYNGGTDYNQKFKNRATLTVDNPTNTAYMELSSLRSEDTAFYYCVNGNPWLAYWGQGTLVTVSSASTKGPSVFPLAPSSKSTSGGTAALGCLVKDYFPEPVTVSWNSGALTSGVHTFPAVLQSSGLYSLSSVVTVPSSSLGTQTYICNVNHKPSNTKVDKRV[human IgG1 Fc not spelt out]
in vitro sensitivity of the multiple AML tumor cell strains, compared with mono-drug ADC ANTI-CD33-Ex01 (10) [1]: significantly better in vitro sensitivity
binding ability to recombinant human CD33 protein, compared with naked anti-CD33 antibody [2]: basically the same
